Results taken from BindingDB's records for PubMed 7996470 (University of Michigan, 1994).

Chains of the proteins cited; added tags and fusions are not shown.
UniProt P18089, whole entry: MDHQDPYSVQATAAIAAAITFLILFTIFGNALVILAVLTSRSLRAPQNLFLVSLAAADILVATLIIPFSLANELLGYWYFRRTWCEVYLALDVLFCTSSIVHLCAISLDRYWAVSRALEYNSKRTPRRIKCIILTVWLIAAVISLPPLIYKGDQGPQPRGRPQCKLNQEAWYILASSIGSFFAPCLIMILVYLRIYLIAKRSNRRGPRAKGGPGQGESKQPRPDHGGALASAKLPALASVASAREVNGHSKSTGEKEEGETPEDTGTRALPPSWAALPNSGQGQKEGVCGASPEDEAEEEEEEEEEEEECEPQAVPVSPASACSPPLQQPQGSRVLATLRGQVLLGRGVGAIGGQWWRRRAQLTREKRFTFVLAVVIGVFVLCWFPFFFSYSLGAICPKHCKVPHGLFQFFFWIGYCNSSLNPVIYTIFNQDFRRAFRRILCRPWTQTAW

Molecular target: Alpha-2B adrenergic receptor (Homo sapiens, UniProt P18089)

O=C1NCN(c2ccccc2)C12CCN(CC1COc3ccccc3O1)CC2 (stereo unspecified) [8-(2,3-Dihydro-benzo[1,4]dioxin-2-ylmethyl)-1-phenyl-1,3,8-triaza-spiro[4.5]decan-4-one]
Ki: 1.57 nM
